Experimental data from patent US8642544B2, “N-terminus conformationally constrained GLP-1 receptor agonist compounds” (Amylin Pharmaceuticals, LLC, priority 2009, dated 2014).
pEC50: −log10 of the molar value.

Molecular target: T1, GLP-1 receptor (Rattus norvegicus, UniProt P32301)
T1 construct: 96-well assay plate containing RIN m5f cell membranes in an ATP/GTP mixture; endogenous in cells; host or cells: RIN m5f cell membranes
T1 sequence (P32301 22-463): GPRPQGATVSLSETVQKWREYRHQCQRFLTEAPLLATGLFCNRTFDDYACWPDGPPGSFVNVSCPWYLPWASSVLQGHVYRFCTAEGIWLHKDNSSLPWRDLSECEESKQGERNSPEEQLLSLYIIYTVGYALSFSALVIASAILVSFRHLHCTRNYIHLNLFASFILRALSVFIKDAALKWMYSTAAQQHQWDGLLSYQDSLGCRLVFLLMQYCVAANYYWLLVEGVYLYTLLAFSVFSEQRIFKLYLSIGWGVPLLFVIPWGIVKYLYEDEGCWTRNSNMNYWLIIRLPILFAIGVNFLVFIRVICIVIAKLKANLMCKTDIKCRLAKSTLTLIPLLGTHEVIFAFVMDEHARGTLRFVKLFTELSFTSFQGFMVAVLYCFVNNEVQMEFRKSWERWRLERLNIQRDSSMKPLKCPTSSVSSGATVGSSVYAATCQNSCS
Test: in vitro functional assay at the GLP-1 receptor (cyclase, cAMP production in RIN m5f cell membranes)
Assay type: biochemical
Conditions: Table 1, cAMP production (AlphaScreen)
Description: The compounds shown in Table 1 below were analyzed in an in vitro functional assay at the GLP-1 receptor. The assay was conducted as follows: Membrane fractions were prepared from confluent cultures of RIN m5f cells. Compounds were serially diluted with an assay buffer, and then added to a 96-well assay plate containing RIN m5f cell membranes in an ATP/GTP mixture. Cyclase activities were determined by measuring the production of cAMP induced through GLP-1 receptor activation. Quantification of cAMP production was achieved through a competitive chemiluminescence assay with a biotinylated-cAMP probe using Perkin Elmer Fusion™-Alpha Microplate Analyzer (AlphaScreen™ technology). The compound EC50 values were obtained through fitting the concentration-response curves to a four-parameter logistic equation within GraphPad PRISM® software.

Q: With `CC[C@H](C)[C@H](NC(=O)[C@H](Cc1ccccc1)NC(=O)[C@H](CCC(=O)O)NC(=O)[C@H](CCCCN)NC(=O)[C@H](C)NC(=O)[C@H](C)NC(=O)[C@H](CCC(N)=O)NC(=O)CNC(=O)[C@H](CCC(=O)O)NC(=O)[C@H](CC(C)C)NC(=O)[C@H](Cc1ccc(O)cc1)NC(=O)[C@H](CO)NC(=O)[C@H](CO)NC(=O)[C@@H](NC(=O)[C@H](CC(=O)O)NC(=O)[C@H](CO)NC(=O)[C@@H](NC(=O)[C@H](Cc1ccccc1)NC(=O)[C@@H](NC(=O)[C@@H]1CSC2C[C@@H](C(=O)O)[C@H](NC(=O)[C@H](C)NC(=O)[C@@H](N)Cc3c[nH]cn3)C(=O)N21)[C@@H](C)O)[C@@H](C)O)C(C)C)C(=O)N[C@@H](C)C(=O)N[C@@H](Cc1c[nH]c2ccccc12)C(=O)N[C@@H](CC(C)C)C(=O)N[C@H](C(=O)N[C@@H](CCCCN)C(=O)NCC(=O)N[C@@H](CCCNC(=N)N)C(=O)NCC(=O)O)C(C)C` (stereo partly shown) [16G] as the compound, how does the pEC50 read?
A: 7.25
